From ChEMBL document CHEMBL1764973 (J Med Chem, 2011) come the findings set out here.

Protein sequences, listed by entry. Tags and fused reporters are not part of them. Lines headed by an entry give the natural chain unless they say otherwise; changes in a name come on top.
UniProt P16257, whole entry, looked up: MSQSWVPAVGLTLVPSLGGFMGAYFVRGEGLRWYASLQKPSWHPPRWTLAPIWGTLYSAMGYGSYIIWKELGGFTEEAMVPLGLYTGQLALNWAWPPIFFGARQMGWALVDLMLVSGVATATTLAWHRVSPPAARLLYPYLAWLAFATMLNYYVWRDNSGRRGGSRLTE
UniProt P34972, whole entry: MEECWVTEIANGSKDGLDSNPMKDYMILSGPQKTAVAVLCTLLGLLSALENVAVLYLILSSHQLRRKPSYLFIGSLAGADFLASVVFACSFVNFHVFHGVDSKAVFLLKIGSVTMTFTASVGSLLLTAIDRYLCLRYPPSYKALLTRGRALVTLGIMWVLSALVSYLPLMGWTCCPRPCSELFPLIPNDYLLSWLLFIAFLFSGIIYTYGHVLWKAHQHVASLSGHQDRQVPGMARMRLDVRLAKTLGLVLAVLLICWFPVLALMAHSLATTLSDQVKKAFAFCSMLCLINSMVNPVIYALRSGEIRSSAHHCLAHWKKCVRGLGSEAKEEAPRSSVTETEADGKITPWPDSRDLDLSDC
UniProt P41595, whole entry: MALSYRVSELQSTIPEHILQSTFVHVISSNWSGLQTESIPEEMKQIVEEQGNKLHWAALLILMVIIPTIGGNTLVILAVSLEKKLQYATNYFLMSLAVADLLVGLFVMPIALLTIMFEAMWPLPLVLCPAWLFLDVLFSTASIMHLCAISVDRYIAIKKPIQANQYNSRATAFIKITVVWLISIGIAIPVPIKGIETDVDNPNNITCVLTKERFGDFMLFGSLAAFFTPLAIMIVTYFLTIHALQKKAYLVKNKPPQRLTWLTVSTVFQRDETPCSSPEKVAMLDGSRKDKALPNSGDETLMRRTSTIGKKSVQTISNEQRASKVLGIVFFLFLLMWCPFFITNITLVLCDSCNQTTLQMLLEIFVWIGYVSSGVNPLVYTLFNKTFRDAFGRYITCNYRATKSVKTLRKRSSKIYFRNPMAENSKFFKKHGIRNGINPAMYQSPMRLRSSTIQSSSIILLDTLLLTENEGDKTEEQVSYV
UniProt P08173, whole entry: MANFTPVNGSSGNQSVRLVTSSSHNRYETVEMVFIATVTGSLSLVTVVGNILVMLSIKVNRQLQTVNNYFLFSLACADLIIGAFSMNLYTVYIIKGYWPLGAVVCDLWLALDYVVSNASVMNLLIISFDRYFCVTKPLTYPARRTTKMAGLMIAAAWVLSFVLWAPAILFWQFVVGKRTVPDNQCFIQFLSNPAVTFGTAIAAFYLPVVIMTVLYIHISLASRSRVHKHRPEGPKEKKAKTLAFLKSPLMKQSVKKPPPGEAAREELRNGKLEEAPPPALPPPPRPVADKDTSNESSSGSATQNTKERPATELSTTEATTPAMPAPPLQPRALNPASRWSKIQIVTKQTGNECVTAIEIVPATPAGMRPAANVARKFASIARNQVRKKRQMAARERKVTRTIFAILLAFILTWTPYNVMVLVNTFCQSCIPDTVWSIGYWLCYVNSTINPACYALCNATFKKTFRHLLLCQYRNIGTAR
UniProt P35368, whole entry: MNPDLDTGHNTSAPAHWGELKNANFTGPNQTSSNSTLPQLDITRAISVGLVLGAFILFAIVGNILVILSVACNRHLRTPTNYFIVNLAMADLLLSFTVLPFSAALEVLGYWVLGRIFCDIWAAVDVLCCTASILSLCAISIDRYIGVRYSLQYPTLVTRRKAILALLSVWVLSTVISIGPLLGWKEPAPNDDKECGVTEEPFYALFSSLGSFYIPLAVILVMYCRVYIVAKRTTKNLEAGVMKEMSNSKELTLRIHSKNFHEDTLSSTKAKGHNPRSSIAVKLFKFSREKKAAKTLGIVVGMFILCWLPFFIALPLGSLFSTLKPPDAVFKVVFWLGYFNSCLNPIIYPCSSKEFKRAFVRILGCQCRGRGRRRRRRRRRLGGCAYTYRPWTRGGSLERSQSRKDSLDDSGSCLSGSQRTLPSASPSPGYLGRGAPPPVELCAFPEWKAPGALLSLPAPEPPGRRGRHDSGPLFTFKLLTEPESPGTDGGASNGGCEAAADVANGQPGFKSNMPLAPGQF
UniProt P23975, whole entry: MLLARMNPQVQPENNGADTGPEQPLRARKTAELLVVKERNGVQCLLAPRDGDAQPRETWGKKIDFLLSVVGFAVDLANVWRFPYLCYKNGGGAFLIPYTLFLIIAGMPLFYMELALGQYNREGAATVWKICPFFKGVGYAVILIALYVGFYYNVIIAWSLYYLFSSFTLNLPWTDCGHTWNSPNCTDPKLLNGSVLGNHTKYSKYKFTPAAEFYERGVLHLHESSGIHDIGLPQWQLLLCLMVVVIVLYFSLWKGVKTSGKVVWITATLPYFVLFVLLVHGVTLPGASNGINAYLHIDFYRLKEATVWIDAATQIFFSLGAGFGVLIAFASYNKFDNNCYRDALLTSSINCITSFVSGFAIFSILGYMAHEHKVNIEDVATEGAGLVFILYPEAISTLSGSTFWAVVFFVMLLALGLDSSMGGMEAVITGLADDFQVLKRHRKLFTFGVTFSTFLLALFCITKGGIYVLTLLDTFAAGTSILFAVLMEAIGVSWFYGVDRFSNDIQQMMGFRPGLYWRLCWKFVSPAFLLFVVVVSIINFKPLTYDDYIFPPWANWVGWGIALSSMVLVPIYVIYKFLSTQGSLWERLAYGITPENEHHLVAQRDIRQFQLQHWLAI
UniProt Q99720, whole entry: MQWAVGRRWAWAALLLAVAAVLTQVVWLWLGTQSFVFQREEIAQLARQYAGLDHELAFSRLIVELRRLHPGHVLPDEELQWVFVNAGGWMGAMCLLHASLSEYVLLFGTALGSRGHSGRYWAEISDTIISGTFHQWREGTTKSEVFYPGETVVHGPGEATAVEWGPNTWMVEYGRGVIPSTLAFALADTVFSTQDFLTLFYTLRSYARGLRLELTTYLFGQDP
UniProt P21728, whole entry: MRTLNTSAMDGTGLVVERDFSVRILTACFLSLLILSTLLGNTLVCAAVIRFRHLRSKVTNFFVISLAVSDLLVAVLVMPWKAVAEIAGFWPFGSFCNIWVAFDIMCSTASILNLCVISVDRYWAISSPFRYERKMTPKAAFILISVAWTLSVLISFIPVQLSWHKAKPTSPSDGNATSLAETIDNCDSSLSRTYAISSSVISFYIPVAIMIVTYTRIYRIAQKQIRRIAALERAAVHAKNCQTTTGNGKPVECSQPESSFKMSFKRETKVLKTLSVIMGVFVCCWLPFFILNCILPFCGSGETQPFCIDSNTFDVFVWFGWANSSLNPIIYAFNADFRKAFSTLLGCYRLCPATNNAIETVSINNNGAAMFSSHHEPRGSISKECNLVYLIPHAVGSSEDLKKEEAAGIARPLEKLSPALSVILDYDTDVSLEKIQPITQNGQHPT
UniProt P28335: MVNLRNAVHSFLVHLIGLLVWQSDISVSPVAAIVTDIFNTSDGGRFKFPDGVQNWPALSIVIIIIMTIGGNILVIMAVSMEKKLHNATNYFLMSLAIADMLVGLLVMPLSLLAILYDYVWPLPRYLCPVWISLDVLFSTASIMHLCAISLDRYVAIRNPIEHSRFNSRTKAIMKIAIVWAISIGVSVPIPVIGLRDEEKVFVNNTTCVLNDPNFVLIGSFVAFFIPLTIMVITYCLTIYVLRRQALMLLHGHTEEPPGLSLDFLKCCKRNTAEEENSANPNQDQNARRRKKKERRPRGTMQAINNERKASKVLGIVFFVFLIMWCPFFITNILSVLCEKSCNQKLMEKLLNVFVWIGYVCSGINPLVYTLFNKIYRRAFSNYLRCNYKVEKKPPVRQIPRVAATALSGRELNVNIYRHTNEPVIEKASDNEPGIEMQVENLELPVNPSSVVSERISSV
UniProt P25021, whole entry: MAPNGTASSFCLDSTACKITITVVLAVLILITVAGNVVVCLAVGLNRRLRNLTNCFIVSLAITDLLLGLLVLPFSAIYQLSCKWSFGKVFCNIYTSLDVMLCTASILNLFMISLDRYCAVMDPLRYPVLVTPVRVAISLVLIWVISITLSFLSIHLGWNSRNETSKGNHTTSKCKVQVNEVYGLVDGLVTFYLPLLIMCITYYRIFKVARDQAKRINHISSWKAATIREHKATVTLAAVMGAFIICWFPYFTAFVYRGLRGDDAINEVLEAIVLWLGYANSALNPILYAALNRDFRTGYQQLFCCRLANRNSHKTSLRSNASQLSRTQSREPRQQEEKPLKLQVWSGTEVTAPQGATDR
UniProt P47901: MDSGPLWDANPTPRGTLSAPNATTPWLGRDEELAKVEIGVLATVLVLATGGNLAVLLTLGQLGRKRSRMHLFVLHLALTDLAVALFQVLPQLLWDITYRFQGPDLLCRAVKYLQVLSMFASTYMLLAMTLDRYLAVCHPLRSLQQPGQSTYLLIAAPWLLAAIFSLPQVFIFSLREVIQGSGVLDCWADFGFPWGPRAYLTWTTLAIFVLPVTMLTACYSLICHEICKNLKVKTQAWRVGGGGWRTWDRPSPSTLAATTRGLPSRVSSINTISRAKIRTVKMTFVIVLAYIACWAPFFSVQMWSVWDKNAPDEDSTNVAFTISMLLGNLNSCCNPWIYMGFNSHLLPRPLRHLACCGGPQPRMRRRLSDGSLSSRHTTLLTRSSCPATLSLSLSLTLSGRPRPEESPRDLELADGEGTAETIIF
UniProt Q9Y5N1: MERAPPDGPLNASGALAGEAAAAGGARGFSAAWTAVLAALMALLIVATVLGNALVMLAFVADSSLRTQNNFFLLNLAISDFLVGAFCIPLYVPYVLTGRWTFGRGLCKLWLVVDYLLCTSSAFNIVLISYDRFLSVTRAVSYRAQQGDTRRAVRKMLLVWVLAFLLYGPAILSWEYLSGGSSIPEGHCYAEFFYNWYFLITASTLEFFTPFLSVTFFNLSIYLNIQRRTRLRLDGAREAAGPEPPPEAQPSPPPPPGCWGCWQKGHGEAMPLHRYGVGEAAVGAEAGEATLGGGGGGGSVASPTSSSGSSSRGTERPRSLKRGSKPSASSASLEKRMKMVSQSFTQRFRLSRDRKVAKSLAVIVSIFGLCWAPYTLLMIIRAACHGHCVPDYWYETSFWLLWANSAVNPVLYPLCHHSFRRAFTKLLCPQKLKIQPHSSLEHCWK
UniProt P08172, whole entry: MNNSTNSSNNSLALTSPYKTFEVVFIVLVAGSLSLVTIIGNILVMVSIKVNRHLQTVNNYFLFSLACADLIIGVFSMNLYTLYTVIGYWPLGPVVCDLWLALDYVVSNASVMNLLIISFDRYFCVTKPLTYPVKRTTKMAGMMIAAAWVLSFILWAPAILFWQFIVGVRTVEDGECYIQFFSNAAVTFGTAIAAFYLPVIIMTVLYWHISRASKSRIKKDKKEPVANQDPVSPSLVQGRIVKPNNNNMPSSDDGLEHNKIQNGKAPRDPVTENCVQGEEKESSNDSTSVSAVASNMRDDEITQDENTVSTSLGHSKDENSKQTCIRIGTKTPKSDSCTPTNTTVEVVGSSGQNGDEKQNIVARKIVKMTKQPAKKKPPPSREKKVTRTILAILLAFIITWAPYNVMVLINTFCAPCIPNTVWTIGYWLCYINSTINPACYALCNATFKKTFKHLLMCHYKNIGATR
UniProt P18825, whole entry: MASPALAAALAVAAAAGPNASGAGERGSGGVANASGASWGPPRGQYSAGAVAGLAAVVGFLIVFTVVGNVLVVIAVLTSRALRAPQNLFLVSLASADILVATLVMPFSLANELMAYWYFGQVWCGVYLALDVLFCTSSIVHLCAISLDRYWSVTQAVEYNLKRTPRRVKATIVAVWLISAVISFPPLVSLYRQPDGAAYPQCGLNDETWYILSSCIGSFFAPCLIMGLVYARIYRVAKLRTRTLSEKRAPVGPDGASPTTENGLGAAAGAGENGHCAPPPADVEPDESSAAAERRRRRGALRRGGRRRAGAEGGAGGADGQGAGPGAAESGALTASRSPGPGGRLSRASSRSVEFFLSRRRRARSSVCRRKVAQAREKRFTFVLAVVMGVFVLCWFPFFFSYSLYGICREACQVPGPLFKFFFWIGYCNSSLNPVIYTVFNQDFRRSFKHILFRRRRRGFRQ
UniProt P08913, whole entry: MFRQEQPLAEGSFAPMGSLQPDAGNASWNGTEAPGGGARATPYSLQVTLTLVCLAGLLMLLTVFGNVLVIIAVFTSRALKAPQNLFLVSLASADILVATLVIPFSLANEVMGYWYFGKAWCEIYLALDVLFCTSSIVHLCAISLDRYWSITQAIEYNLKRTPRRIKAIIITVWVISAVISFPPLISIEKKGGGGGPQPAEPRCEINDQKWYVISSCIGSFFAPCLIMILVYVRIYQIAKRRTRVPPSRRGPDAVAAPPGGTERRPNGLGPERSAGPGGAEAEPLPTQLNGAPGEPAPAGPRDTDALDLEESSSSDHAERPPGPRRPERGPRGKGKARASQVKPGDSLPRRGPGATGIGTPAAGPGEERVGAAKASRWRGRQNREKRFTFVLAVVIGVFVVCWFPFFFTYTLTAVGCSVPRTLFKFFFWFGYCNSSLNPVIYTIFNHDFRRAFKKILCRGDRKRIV

In assay [1] the target is Translocator protein (Rattus norvegicus, UniProt P16257).
For assay [2], the target named is Cannabinoid receptor 2 (Homo sapiens, UniProt P34972).
Assay [3] deals with Cannabinoid receptor 1 (Homo sapiens, UniProt P21554).
Assay [4] addresses 5-hydroxytryptamine receptor 7 (Homo sapiens) (UniProt P34969). To be noted: 10 uM.
The target in assay [5] is D(3) dopamine receptor (Homo sapiens) (UniProt P35462). To be noted: 10 uM.
The target in assay [6] is Beta-3 adrenergic receptor (Homo sapiens) (UniProt P13945). To be noted: 10 uM.
Assay [7] deals with Muscarinic acetylcholine receptor M1 (Homo sapiens) (UniProt P11229). To be noted: 10 uM.
The target in assay [8] is 5-hydroxytryptamine receptor 2B (Homo sapiens) (UniProt P41595). To be noted: 10 uM.
Assay [9] concerns the target 5-hydroxytryptamine receptor 3A (Homo sapiens) (UniProt P46098). To be noted: 10 uM.
Assay [10] addresses Muscarinic acetylcholine receptor M4 (Homo sapiens) (UniProt P08173). To be noted: 10 uM.
In assay [11] the target is Alpha-1B adrenergic receptor (Homo sapiens) (UniProt P35368). To be noted: 10 uM.
Assay [12] has as its target D(2) dopamine receptor (Homo sapiens) (UniProt P14416). To be noted: 10 uM.
In assay [13] the target is Muscarinic acetylcholine receptor M3 (Homo sapiens) (UniProt P20309). To be noted: 10 uM.
In assay [14] the target is Sodium-dependent noradrenaline transporter (Homo sapiens) (UniProt P23975). To be noted: 10 uM.
The target in assay [15] is 5-hydroxytryptamine receptor 6 (Homo sapiens) (UniProt P50406). To be noted: 10 uM.
The target in assay [16] is Alpha-1A adrenergic receptor (Homo sapiens) (UniProt P35348). To be noted: 10 uM.
Assay [17] deals with D(4) dopamine receptor (Homo sapiens) (UniProt P21917). To be noted: 10 uM.
Assay [18] has as its target Sigma non-opioid intracellular receptor 1 (Homo sapiens) (UniProt Q99720). To be noted: 10 uM.
The target of assay [19] is Kappa-type opioid receptor (Homo sapiens, UniProt P41145).
Assay [20] deals with D(1A) dopamine receptor (Homo sapiens) (UniProt P21728). To be noted: 10 uM.
The target in assay [21] is Beta-1 adrenergic receptor (Homo sapiens) (UniProt P08588). To be noted: 10 uM.
For assay [22], the target named is 5-hydroxytryptamine receptor 1E (Homo sapiens) (UniProt P28566). To be noted: 10 uM.
Assay [23] concerns the target Alpha-2B adrenergic receptor (Homo sapiens) (UniProt P18089). To be noted: 10 uM.
For assay [24], the target named is Sodium-dependent serotonin transporter (Homo sapiens) (UniProt P31645). To be noted: 10 uM.
Assay [25] has as its target Sodium-dependent dopamine transporter (Homo sapiens) (UniProt Q01959). To be noted: 10 uM.
In assay [26] the target is Vasopressin V2 receptor (Homo sapiens) (UniProt P30518). To be noted: 10 uM.
For assay [27], the target named is 5-hydroxytryptamine receptor 2C (Homo sapiens) (UniProt P28335). To be noted: 10 uM.
Assay [28] has as its target Histamine H1 receptor (Homo sapiens) (UniProt P35367). To be noted: 10 uM.
Assay [29] has as its target 5-hydroxytryptamine receptor 5A (Homo sapiens) (UniProt P47898). To be noted: 10 uM.
For assay [30], the target named is Vasopressin V1a receptor (Homo sapiens) (UniProt P37288). To be noted: 10 uM.
The target in assay [31] is Histamine H2 receptor (Homo sapiens) (UniProt P25021). To be noted: 10 uM.
The target of assay [32] is Vasopressin V1b receptor (Homo sapiens) (UniProt P47901). To be noted: 10 uM.
Assay [33] concerns the target Muscarinic acetylcholine receptor M5 (Homo sapiens) (UniProt P08912). To be noted: 10 uM.
The target in assay [34] is Histamine H3 receptor (Homo sapiens) (UniProt Q9Y5N1). To be noted: 10 uM.
Assay [35] deals with Muscarinic acetylcholine receptor M2 (Homo sapiens) (UniProt P08172). To be noted: 10 uM.
The target of assay [36] is Delta-type opioid receptor (Homo sapiens) (UniProt P41143). To be noted: 10 uM.
Assay [37] deals with Alpha-2C adrenergic receptor (Homo sapiens) (UniProt P18825). To be noted: 10 uM.
Assay [38] deals with Mu-type opioid receptor (Homo sapiens) (UniProt P35372). To be noted: 10 uM.
Assay [39] deals with Alpha-2A adrenergic receptor (Homo sapiens) (UniProt P08913). To be noted: 10 uM.

For orientation: Ki means a dissociation constant, usually derived from enzyme kinetics or from competition with a known ligand. A lower Ki goes with higher affinity. Usually inhibition stands for how much of the control response was suppressed.

Molecules are shown by their SMILES.

In turn, `Cc1c(C(=O)NC2(C#N)CCOCC2)nn(-c2ccccc2I)c1-c1ccccc1` had a Ki in assay [1] of 762 nM.

As for `Cc1c(C(=O)NC2(C#N)CCOCC2)nn(-c2cccc(Br)c2)c1-c1ccccc1`, the inhibition constant Ki is 226 nM in [2] and 115 nM in assay [1].

`Cc1c(C(=O)NC2(C#N)CCOCC2)nn(-c2ccccc2-c2ccccc2)c1-c1ccccc1`: the Ki was 500 nM in assay [3] and 2800 nM in assay [1].

Turning to `COc1ccc(-c2c(C)c(C(=O)NC3(C#N)CCOCC3)nn2-c2cccc(Br)c2)cc1`, in assay [1], the affinity corresponds to a Ki of 61.8 nM.

As for `COc1ccc(-c2c(Br)c(C(=O)NC3(C#N)CCOCC3)nn2-c2cccc(Br)c2)cc1`, the values for the inhibitory constant (Ki) in [3], in [2] and in assay [1] were 356 nM, 175 nM and 155 nM, respectively.

As for `COc1ccc(-c2c(C)c(C(=O)NC3(C#N)CCOCC3)nn2-c2ccccc2Br)cc1`, the inhibition in assay [4], in [5], in assay [6], in assay [7], in assay [8] and in assay [9] was under 50% in each case. Further, the inhibition in assay [10], in assay [11], in assay [12], in [13], in assay [14] and in [15] was under 50% in each case. Besides, the inhibition in assay [16], in [17], in [18], in [20], in assay [21] and in assay [22] was under 50% in each case. The inhibition in assay [23], in assay [24], in assay [25], in assay [26], in assay [27] and in assay [28] was under 50% in each case. For the same molecule, the inhibition in assay [29], in assay [30], in assay [31], in [32], in [33] and in [34] was under 50% each time. In addition, the inhibition in assay [35], in [36], in [37], in [38] and in [39] was under 50% in each case. Further, the inhibition constant (Ki) stood at 62.2 nM in assay [3], 798 nM in assay [19], 1890 nM in assay [2] and 29 nM in assay [1].

`COc1ccc(-c2c(C)c(C(=O)NC3(C#N)CCOCC3)nn2-c2ccccc2F)cc1`: the inhibition constant Ki in [1] was found to be 132 nM. This counts as sub-micromolar.

The molecule `Cc1c(C(=O)NC2(C#N)CCOCC2)nn(-c2ccccc2Br)c1-c1ccccc1` yielded a Ki in assay [1] of 576 nM.

Turning to `Cc1c(C(=O)NC2(C#N)CCCCC2)nn(-c2ccccc2Br)c1-c1ccccc1`, in assay [1], the inhibitory constant (Ki) is 75.2 nM.

Consider `Cc1c(C(=O)NC2(C#N)CCOCC2)nn(-c2ccc(Br)cc2)c1-c1ccccc1`, for which, in assay [1], the inhibitory constant (Ki) is 420 nM.

`Cc1c(C(=O)NC2(C#N)CCOCC2)nn(-c2ccccc2F)c1-c1ccccc1`: the Ki in assay [2] was determined as 2180 nM; in [1], 394 nM.

For the molecule `Cc1c(C(=O)NC2(C#N)CCOCC2)nn(-c2ccccc2Br)c1-c1cccc(F)c1`, the affinity in assay [1] corresponds to a Ki of 693 nM.

`Cc1c(C(=O)NC2(C#N)CCOCC2)nn(-c2ccccc2Br)c1-c1ccc(F)cc1`: the values for the Ki in [3] and in assay [1] were 55 nM and 492 nM, respectively.
